Results on one substance are retold here after US11759436B2, “Dosage regimen of an S1P receptor modulator” (Novartis AG, priority 2009, dated 2023).

The test system of the data set is patients with Relapsing-remitting Multiple Sclerosis. The data set can be described thus: Study of oral fingolimod 0.5 mg/day or 1.25 mg/day vs interferon beta1-a in patients with RRMS. The format is in vivo, human. As to the method: Study: Two different daily dosages of fingolimod (0.5 mg and 1.25 mg) have been orally administered to patients with Relapsing-remitting Multiple Sclerosis during 24-month 1292 patients with RRMS from 172 centers in 18 countries are randomized to receive oral fingolimod, in a dose of 0.5 mg/day or 1.25 mg/day, or interferon beta1-a 30 μg intramuscularly once a week. Patients randomized to fingolimod receive placebo injections once a week, and those randomized to interferon beta1-a receive a placebo pill once a day. The patients are seen clinically every month for 3 months and every 3 months thereafter. The Expanded Disability Status Scale (EDSS) is performed every 3 months, the MS Functional Composite (MSFC) every 6 months, and MRI annually. Monitoring by ophthalmic examination, dermatologic examination, pulmonary function tests, chest X-ray and/or CT, Holter monitoring, and echocardiography are performed. Participants who completed 1 year on treatment are offered an optional extension phase. Those randomized to fingolimod continue on their assigned dose, and those in the interferon beta1-a group are randomized to the 2 fingolimod doses.

As for “Interferon beta1-a: comparator given 30 μg intramuscularly once a week to RRMS patients”, for the setting “RRMS patients, interferon beta1-a 30 μg intramuscularly once a week”, the Annualized relapse rate is given as 0.33. The “proportion of relapse-free patients” value (RRMS patients, interferon beta1-a group) worked out at 69%. For the same substance, for the setting “human, in vivo”, the Basal-cell carcinoma is given as 1 (0.2) n (%), the Breast cancer is 0 n (%), the Malignant melanoma is 0 n (%) and the Squamous-cell carcinoma is 1 (0.2) n (%).
